In patent US8278310B2, “Amine salts of a CRTH2 antagonist” (Actimis Pharmaceuticals, Inc., priority 2007, dated 2012):

Experiment: Aqueous solubility of the salts from base screening
Settings: salt of the acid of Formula I with the named base

Substance: Choline Salt of {4,6-Bis(dimethylamino)-2-(4-(4-(trifluoromethyl)benzamido)benzyl)pyrimidin-5-yl}Acetic Acid
- Aqueous Solubility at 25° C.: 24.0 mg/mL
